# Results taken from patent US20240166755A1, “CHIMERIC ANTIGEN RECEPTORS TARGETING CANCER” (University of Southern California, priority 2016, published 2024).
# B1: CD8SP-MPL-161-(vL-vH)-Myc-BBz-T2A-PAC(021015-R07): CAR targeting MPL: 161 scFv, Myc tag, CD8 hinge/TM, 41BB, CD3z, T2A, puromycin resistance (protein)
# chain: MALPVTALLLPLALLLHAARPDDIQMTQSSSSFSVSLGDRVTITCMASEDIYIRLAWYQQKPGNAPRLLISAATSLETGVPSRFSGSGSGKDYTLSITSLQTEDVGTYYCQQYWSSPWTFGGGTKLEINGGGGSGGGGSGGGGSDVQLQESGPGLVKPSQSLSLTCTVTGYSITSDYTWNWIRQFPGNKLEWMGYITYSGSTSYNPSLKSRNSITRDTSKNQFFLQLNSVTTEDTATYYCARLGRRYTMDYWGQGTSVTVSSTREQKLISEEDLAKPTTTPAPRPPTPAPTIASQPLSLRPEACRPAAGGAVHTRGLDFACDIYIWAPLAGTCGVLLLSLVITLYCKRGRKKLLYIFKQPFMRPVQTTQEEDGCSCRFPEEEEGGCELRVKFSRSADAPAYQQGQNQLYNELNLGRREEYDVLDKRRGRDPEMGGKPRRKNPQEGLYNELQKDKMAEAYSEIGMKGERRRGKGHDGLYQGLSTATKDTYDALHMQALPPRSSGSGEGRGSLLTCGDVEENPGPHMTEYKPTVRLATRDDVPRAVRTLAAAFADYPATRHTVDPDRHIERVTELQELFLTRVGLDIGKVWVADDGAAVAVWTTPESVEAGAVFAEIGPRMAELSGSRLAAQQQMEGLLAPHRPKEPAWFLATVGVSPDHQGKGLGSAVVLPGVEAAERAGVPAFLETSAPRNLPFYERLGFTVTADVEVPEGPRTWCMTRKPGA
# modifications: listed as DNA
# notes: CAR targeting MPL: 161 scFv, Myc tag, CD8 hinge/TM, 41BB, CD3z, T2A, puromycin resistance
# Key:
# [1] = target: extracellular domain (ECD) of human CD19 (Homo sapiens, UniProt P15391); assay: NLuc assay to detect CAR: binding of FLAG-CD19-ECD-GGSG-NLuc-AcV5 supernatant to CAR-expressing cells; details: transiently transfected 293FT cells
# From the text: A frequent problem in the field of chimeric antigen receptors is lack of a sensitive and specific assay that can detect cells that express chimeric antigen receptors. To detect the expression of CAR targeting CD19 and MPL, we fused the extracellular domains (ECD) of human CD19 and human MPL, including their signal peptides, in frame with nucleotide sequence encoding a Gly-Gly-Ser-Gly linker, NLuc (without a secretory signal) and an AcV5 epitope tag. In the case of CD19 construct, a FLAG tag was inserted between the signal peptide and the beginning of the extracellular domain. The whole cassette was cloned downstream of the human EF1α promoter into the lentiviral vector pLenti-EF1 to make constructs pLenti-EF1-FLAG-CD19-ECD-GGSG-NLuc-AcV5 and pLenti-EF1-MPL-ECD-GGSG-NLuc-AcV5, respectively. The nucleic acid sequences of the insert fragments are provided in SEQ ID NO: 926 and SEQ ID NO: 925, respectively. The protein sequences of the insert fragments are provided in SEQ ID NO: 2671 and SEQ ID NO: 2670, respectively. The constructs were transfected into 293FT cells by calcium phosphate co-precipitation method. Approximately 20 h post-transfection, the cell culture media was replaced with fresh medium. The conditioned media containing the secreted FLAG-CD19-ECD-GGSG-NLuc-AcV5 (also referred to as CD19-GGSG-NLuc-AcV5) and MPL-ECD-GGSG-NLuc-AcV5 (also referred to as MPL-GGSG-NLuc-AcV5) proteins was collected 48-72 h later.
# Next day morning, approximately 18 hours post-transfection, cells were collected by pipetting up and down in 1.5 ml tubes. The tubes were spun down at 1500 RPM for 5 minutes. Then the cells were washed once with wash buffer (1% FBS in PBS), followed by incubation with 1001 of indicated secretory forms of GGS NLuc supernatants. The cells were incubated at 4° C. for 1 hour.
# After the incubation, cells were washed 5 times with wash buffer (1 ml each wash). Finally the pellet was resuspended in 200 μl wash buffer. Resuspended cells were placed in a 384 well plate in triplicate (25 μl each). Luciferase activity was measured using a BioTek synergy H4 plate reader after addition of NLuc assay buffer (Promega) containing native coelenterazine (25 μl each well) directly to each well (one at a time).
# Jurkat-NFAT-Luc cells were stably transduced with the different CD19 targeted CAR constructs and selected in puromycin. Cells were incubated with FLAG-CD19-ECD-GGSG-NLuc-AcV5 [SEQ ID NO:2671] supernatant and after extensive washes assayed for NLuc activity essentially as described previously.
# Purified T cells were stably transduced with the different CD19-targeted CAR constructs and selected in puromycin. Cells were incubated with FLAG-CD19-ECD-GGSG-NLuc-AcV5 [SEQ ID NO:2671] supernatant and after extensive washes assayed for NLuc activity essentially as described previously.
# HEL cells = assay: ELISA of TNFα in supernatant of CAR-T cells co-cultured with HEL cells; assay type: cell-based, human; details: co-culture about 96 hours, versus uninfected T cells
# [2] = target: T1, extracellular domain (ECD) of human MPL (Homo sapiens, UniProt P40238); assay: NLuc assay to detect CAR: binding of MPL-ECD-GGSG-NLuc-AcV5 supernatant to CAR-expressing cells
# T1 construct: made in house; host or cells: 293FT cells, conditioned medium used unpurified
molecule,measurement,setting,value
B1,binding to FLAG-CD19-ECD-GGSG-NLuc-AcV5 (NLuc assay),[1],very little binding
same,secretion of TNFα,HEL cells,increased secretion of TNFα
same,binding to MPL-GGSG-NLuc AcV5 (NLuc assay),[2]; T cells expressing the CAR,strong binding
same,binding to MPL-ECD-GGSG-NLuc-AcV5 (NLuc assay),[2]; transiently transfected 293FT cells,strong binding
